Test results taken from patent publication US20240180139A1, “SOLVENT FOR INSECT REPELLENT ACTIVE INGREDIENT AND INSECT REPELLENT SYSTEM USING SAME” (Thermacell Repellents, Inc., priority 2021, published 2024).

Experiment: release / vaporization rate through heated wick of dispensing device
Assay type: physicochemical
Conditions: single glycol solvent by itself, against target release rate
Text: Once candidate materials are identified, considerations of whether release rates relative to the selected glycols would be sufficient to deliver good spatial mosquito repellency. […] In one embodiment, an approximate 70:30 solvent ratio of two solvents is provided.

hexylene glycol
volatilization of solvent by itself: too fast
